Laboratory results published in PubChem BioAssay AID1188 (EPA DSSTox, 2008).

Tested on: Fathead minnow (Pimephales promelas) acute toxicity, lethality
Experiment: DSSTox (EPAFHM) EPA Fathead Minnow Acute Toxicity

Compound | Potency [µM]
CC(C)N(CCO)C(C)C | 1380
Cc1ccc([N+](=O)[O-])cc1[N+](=O)[O-] | 133
O=[N+]([O-])c1cccc([N+](=O)[O-])c1O | 216
